How the values were obtained:
[1] = Plasma pharmacokinetics of doxorubicin and metabolites after i.v. bolus in wild-type and mdr1a(-/-) mice (HPLC)
Excerpt: (§1) Blank human plasma was obtained from healthy donors. […] All biological specimens were stored at -20C until analysis. […] However, […]

[2] = Tissue distribution of doxorubicin and metabolites in wild-type and mdr1a(-/-) mice (HPLC)
Excerpt: as §1

COc1cccc2c1C(=O)c1c(O)c3c(c(O)c1C2=O)C[C@@](O)(C(=O)CO)C[C@@H]3O[C@H]1C[C@H](N)[C@H](O)[C@H](C)O1 [doxorubicin]
Ratio, drug concentration in mdr1a(-/-) vs wild-type mice ([1]; 1 h): 0.9
Ratio, drug concentration in mdr1a(-/-) vs wild-type mice ([1]; 4 h): 0.9
Ratio, drug concentration in mdr1a(-/-) vs wild-type mice ([1]; 24 h): 1.7
Ratio, drug concentration in mdr1a(-/-) vs wild-type mice ([2]; brain, 1 h): 2.8
Ratio, drug concentration in mdr1a(-/-) vs wild-type mice ([2]; brain, 4 h): 2.8
Ratio, drug concentration in mdr1a(-/-) vs wild-type mice ([2]; brain, 24 h): 3.8
Ratio, drug concentration in mdr1a(-/-) vs wild-type mice ([2]; breast, 1 h): 1.1
Ratio, drug concentration in mdr1a(-/-) vs wild-type mice ([2]; breast, 4 h): 1.7
Ratio, drug concentration in mdr1a(-/-) vs wild-type mice ([2]; breast, 24 h): 3.7
Ratio, drug concentration in mdr1a(-/-) vs wild-type mice ([2]; caecum, 1 h): 1.2
Ratio, drug concentration in mdr1a(-/-) vs wild-type mice ([2]; caecum, 4 h): 1.1
Ratio, drug concentration in mdr1a(-/-) vs wild-type mice ([2]; caecum, 24 h): 2.5
Ratio, drug concentration in mdr1a(-/-) vs wild-type mice ([2]; colon, 1 h): 1.2
Ratio, drug concentration in mdr1a(-/-) vs wild-type mice ([2]; colon, 4 h): 1.0
Ratio, drug concentration in mdr1a(-/-) vs wild-type mice ([2]; colon, 24 h): 2.6
Ratio, drug concentration in mdr1a(-/-) vs wild-type mice ([2]; heart, 1 h): 1.1
Ratio, drug concentration in mdr1a(-/-) vs wild-type mice ([2]; heart, 4 h): 1.1
Ratio, drug concentration in mdr1a(-/-) vs wild-type mice ([2]; heart, 24 h): 2.8
Tissue level ([2]; heart, 24 h after i.v. 5 mg kg-1 doxorubicin, mdr1a(-/-) mice): 4.74 nmol g-1 tissue
Ratio, drug concentration in mdr1a(-/-) vs wild-type mice ([2]; kidney, 1 h): 0.9
Tissue level ([2]; kidney, 1 h after i.v. 5 mg kg-1 doxorubicin, wild-type mice): 36.2 nmol g-1 tissue
Ratio, drug concentration in mdr1a(-/-) vs wild-type mice ([2]; kidney, 4 h): 1.0
Ratio, drug concentration in mdr1a(-/-) vs wild-type mice ([2]; kidney, 24 h): 1.6
Ratio, drug concentration in mdr1a(-/-) vs wild-type mice ([2]; liver, 1 h): 2.2
Ratio, drug concentration in mdr1a(-/-) vs wild-type mice ([2]; liver, 4 h): 4.5
Ratio, drug concentration in mdr1a(-/-) vs wild-type mice ([2]; liver, 24 h): 8.1
Ratio, drug concentration in mdr1a(-/-) vs wild-type mice ([2]; lung, 1 h): 1.1
Ratio, drug concentration in mdr1a(-/-) vs wild-type mice ([2]; lung, 4 h): 1.0
Ratio, drug concentration in mdr1a(-/-) vs wild-type mice ([2]; lung, 24 h): 3.8
Ratio, drug concentration in mdr1a(-/-) vs wild-type mice ([2]; muscle, 1 h): 0.9
Ratio, drug concentration in mdr1a(-/-) vs wild-type mice ([2]; muscle, 4 h): 0.8
Ratio, drug concentration in mdr1a(-/-) vs wild-type mice ([2]; muscle, 24 h): 1.4
Ratio, drug concentration in mdr1a(-/-) vs wild-type mice ([2]; ovary, 1 h): 1.3
Ratio, drug concentration in mdr1a(-/-) vs wild-type mice ([2]; ovary, 4 h): 1.4
Ratio, drug concentration in mdr1a(-/-) vs wild-type mice ([2]; ovary, 24 h): 1.2
Ratio, drug concentration in mdr1a(-/-) vs wild-type mice ([2]; small gut, 1 h): 1.2
Ratio, drug concentration in mdr1a(-/-) vs wild-type mice ([2]; small gut, 4 h): 1.3
Ratio, drug concentration in mdr1a(-/-) vs wild-type mice ([2]; small gut, 24 h): 3.7
Ratio, drug concentration in mdr1a(-/-) vs wild-type mice ([2]; spleen, 1 h): 1.1
Ratio, drug concentration in mdr1a(-/-) vs wild-type mice ([2]; spleen, 4 h): 0.9
Ratio, drug concentration in mdr1a(-/-) vs wild-type mice ([2]; spleen, 24 h): 1.8
Ratio, drug concentration in mdr1a(-/-) vs wild-type mice ([2]; stomach, 1 h): 0.9
Ratio, drug concentration in mdr1a(-/-) vs wild-type mice ([2]; stomach, 4 h): 1.5
Ratio, drug concentration in mdr1a(-/-) vs wild-type mice ([2]; stomach, 24 h): 1.8
Ratio, drug concentration in mdr1a(-/-) vs wild-type mice ([2]; uterus, 1 h): 1.3
Tissue level ([2]; uterus, 1 h after i.v. 5 mg kg-1 doxorubicin, mdr1a(-/-) mice): 10.6 nmol g-1 tissue
Ratio, drug concentration in mdr1a(-/-) vs wild-type mice ([2]; uterus, 4 h): 0.7
Ratio, drug concentration in mdr1a(-/-) vs wild-type mice ([2]; uterus, 24 h): 1.9

From PMC2362153, “Increased accumulation of doxorubicin and doxorubicinol in cardiac tissue of mice lacking mdr1a P-glycoprotein” (British Journal of Cancer, 1999)
